US20170151256A1, “ANTITUMOR AGENT” (ZERIA PHARMACEUTICAL CO., LTD., priority 2005, published 2017)

Tests used:
Type in all cases: in vivo, mouse
[1] = test system: human gastric cancer cells (MGLVA1); assay: MGLVA1 intraperitoneal lethal model, survival; settings: 30 mg/kg oral once daily; day 6 after the administration start; female SCID mice (control 6.7%)
Protocol: 5×10^5 cells of human gastric cancer cells (MGLVA1) were intraperitoneally injected into female SCID mice. After implantation, compound A1 was orally administered to mice at doses of 3 mg/kg and 30 mg/kg once daily. The prolongation of survival time by compound A1 was evaluated because this model using MGLVA1 was lethal model.

[2] = test system: human pancreatic cancer cells (PANC-1); assay: PANC-1 implanted into pancreas, lethal model, survival rate; settings: compound A1 100 mg/kg oral once daily from 7 days after implantation; 40 days after administration start (46 days after implantation); female SCID mice (control 46.7%)
Protocol: (§1) A small piece (70 to 80 mg) of human pancreatic cancer cells (PANC-1) was implanted into the pancreas of female SCID mice (15 mice for each group). In a group of mice, from seven days after implantation, compound A1 was orally administered at a dose of 100 mg/kg once daily. In another group of mice, on seven, 10, and 14 days after the implantation, gemcitabine hydrochloride (Gemzar Injection®) as a positive control was intravenously injected at a dose of 100 mg/kg. The prolongation of survival time by compound A1 was evaluated because this model using PANC-1 was lethal model.

[3] = test system: human pancreatic cancer cells (PANC-1); assay: PANC-1 implanted into pancreas, lethal model, survival with gemcitabine combination (Table 1); settings: female SCID mice, compound A1 100 mg/kg oral once daily from day 7, GEM 100 mg/kg i.v. days 7, 10, 14
Protocol: as §1, with “after the” for “after”, “after” for “after the”, “Injection®)” for “Injection®) as a positive control”, “administered” for “injected”

Q: How did the Survival rate [1] turn out when “calcium (R)-(−)-3-[3-(1-tert-butylcarbonylmethyl-2-oxo-5-cyclohexyl-1,3,4,5-tetrahydro-2H-1,5-benzodiazepin-3-yl)ureido]benzoate [compound A1]” was run?
A: The Survival rate was 46.7%.

Q: And the Survival rate [2]?
A: Its Survival rate is 86.7%.

Q: What about the “Survival rate at 60 days after initiation of administration (66 days after implantation)” value ([3]; alone or combined (control 0)) of the same substance?
A: The value was 6.7%.

Q: And the Median survival time ([3]; alone or combined (control 39))?
A: Its Median survival time is 51 days.

Q: What about the “Survival rate at 50 days after initiation of administration (56 days after implantation)” value ([3]; alone or combined (control 40)) of the same substance?
A: The value was 53.3%.

Q: What about the Average survival time ([3]; alone or combined (control 43)) of the same substance?
A: Its Average survival time is 49.5 days.

Q: And the “Days of death of the last individual” value ([3]; alone or combined (control 56))?
A: The value was 61 days.
